From patent US11370795B2, “Process for the synthesis of 6-[(3S,4S)-4-methyl-1-(pyrimidin-2-ylmethyl)pyrrolidin-3-yl]-3-tetrahydropyran-4-yl-7H-imidazo[1,5-a]pyrazin-8-one” (Imara Inc., priority 2017, dated 2022) come the findings set out here.

This series in a line: Blood Brain Barrier penetration (plasma and brain concentration). The settings on record: mouse. It counts as in vivo.

For the molecule `C[C@@H]1CN(Cc2ncccn2)C[C@H]1c1nc2c(cnn2C2CCOCC2)c(=O)[nH]1` (relative stereo), the Kp at 0.5 h (30 min, read-out: Brain/Plasma ratio after 30 minutes) was determined as 0.41. Where the note is “120 min, read-out: Brain/Plasma ratio after 120 minutes”, the Kp at 2 h stood at 0.41.
